Values quoted from earlier work in US5578725A, “Delta opioid receptor antagonists” (priority 1995, dated 1996).

By UniProt entry, the sequences of proteins in these tests, tags left out. Where a name states a change or a piece, a line headed by the entry shows the natural chain unless it says otherwise. Residues count along the entry.
UniProt A0A286XTF2, 1-366: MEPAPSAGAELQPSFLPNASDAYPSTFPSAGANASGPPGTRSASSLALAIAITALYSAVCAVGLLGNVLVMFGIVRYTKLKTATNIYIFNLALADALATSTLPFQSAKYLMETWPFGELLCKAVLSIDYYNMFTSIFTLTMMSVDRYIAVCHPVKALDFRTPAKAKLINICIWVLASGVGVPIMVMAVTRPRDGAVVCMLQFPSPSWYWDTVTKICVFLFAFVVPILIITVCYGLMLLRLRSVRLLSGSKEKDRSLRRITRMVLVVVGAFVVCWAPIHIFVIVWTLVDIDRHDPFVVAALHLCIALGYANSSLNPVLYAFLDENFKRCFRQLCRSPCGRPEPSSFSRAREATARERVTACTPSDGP

Molecular target: T1, δ1 (Cavia porcellus, UniProt A0A286XTF2)
T1 construct: Guinea Pig Brain Membranes; from tissue; host or cells: guinea pig brain membranes
Details: read-out: Ki δ1; data from Portoghese et al.; cited from earlier work

Oc1ccc2c3c1O[C@H]1c4[nH]c5ccccc5c4C[C@@]4(O)[C@@H](C2)N(CC2CC2)CC[C@]314 [Compound 1, naltrindole]
Ki: 0.03 nM
